Assay results from PubChem BioAssay AID1486 (The Scripps Research Institute Molecular Screening Center, 2009).
Where “and” joins values, the source holds several entries; their conditions need not be identical. Identical values can stand only once. Only a part is listed here, and it is no random draw. Calls of active or inactive are those of the source.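 The calls were made as follows: active = inhibition above a per-campaign cutoff, the mean inhibition of all tested compounds plus 3 SD (cut at about 27% in these data); inactive = the rest.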

Assay: parental Ba/F3 cell viability inhibition, counter-screen for JAK2V617F inhibitor project, murine pro-B, CellTiter-Glo luminescence (AID 1486);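 also: 0% = DMSO wells and 100% = JAK Inhibitor I control wells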
Conditions: CellTiter-Glo ATP luminescence, at 5.6 µM, hits give high values

Row | Compound | inhibition
1 | CC(C)=N/N=C(\N)N[N+](=O)[O-] | inactive: 4%
2 | CN(C)C(=O)OCCc1n(C)cc[n+]1C | inactive: 0.22%
3 | CC1CCN(C(=O)Oc2c(Cl)cc(Cl)c3cccnc23)CC1 | inactive: 2.53%
4 | Nc1ccc([As](=O)(O)c2ccc(N)cc2)cc1 | inactive: -2.11%
5 | C[N+]1=C2C=CC=CC=C2SC12C([N+](=O)[O-])=CC([N+](=O)[O-])=C[C-]2[N+](=O)[O-] (stereo not given) | inactive: -3.23%
6 | CCN(/C(=N/P(=O)(N1CCOCC1)N1CCOCC1)N1CCOCC1)c1ccc(OC)cc1 | inactive: 2.02%
7 | CC(=O)N1C2C3N(C(C)=O)C1C1N(C(C)=O)C(C(N1C(C)=O)N3C(C)=O)N2C(C)=O | inactive: 0.52%
8 | O=[N+]([O-])c1cccc2n[nH]nc12 | inactive: 5.06%
9 | Cc1ccc(NP(=O)(Oc2ccccc2)Oc2ccccc2)nc1 | inactive: 22.5%
10 | O=[N+]([O-])c1cc([N+](=O)[O-])c(CCNc2ccccc2)c([N+](=O)[O-])c1 | inactive: 12.4%
11 | CCc1nc2c(n1)c1c(non1O)c1c2no[n+]1[O-] | active: 44.4%
12 | COc1ccc(C2=NCC(CBr)S2)cc1 (stereo not given) | inactive: 1.99%
13 | O=[N+]([O-])c1cccc(NC2=NCC(CBr)S2)c1 (stereo not given) | inactive: 0.18%
14 | O=C(O)CNc1ccc([As](=O)(O)O)cc1 | inactive: -0.35%
15 | CC(C)(C)C(=O)NC(Sc1ccncn1)C(Cl)(Cl)Cl (stereo not given) | inactive: -0.99%
16 | O=[N+]([O-])c1ncn(CCn2ncnc2[N+](=O)[O-])n1 | inactive: 10.8%
17 | O=C(Nc1cc([As](=O)(O)O)ccc1O)c1ccccc1 | inactive: -1.62%
18 | CCN(N=Nc1nonc1N)c1nonc1N | inactive: 0.36%
19 | Nc1cccc2ccc([As](=O)(O)O)cc12 | inactive: -3.78%
20 | CCOP(=O)(Nc1ccccc1)OCC | inactive: 2.59% and inactive: -4.93%
21 | Cc1cc(SC(NC(=O)c2ccc(F)cc2)C(Cl)(Cl)Cl)ncn1 (stereo not given) | inactive: 2.49%
22 | Cc1ccc(NP(=O)(Oc2ccccc2F)Oc2ccccc2F)nc1 | inactive: -0.79%

Row | Compound | inhibition
23 | O=C(O)c1ccccc1[As](=O)(O)O | inactive: 5.8%
24 | CC(=O)Nc1ccc([As](=O)(O)O)cc1 | inactive: -2.82%
25 | O=P(Nc1nc2ccc(Cl)cc2s1)(c1ccccc1)c1ccccc1 | inactive: 3.16%
26 | CC(C)CC(=O)NC(Sc1ccc(Cl)cc1)C(Cl)(Cl)Cl (stereo not given) | inactive: 2.37%
27 | Nc1cc(N)c2nonc2c1[N+](=O)[O-] | inactive: -2.54%
28 | Oc1ccccc1CNc1ccccn1 | inactive: 3.36%
29 | Cc1c2non([O-])c-2c(C)[n+](=O)[n+]1[O-] | inactive: 4.03%
30 | O=C(NC(Sc1ccncn1)C(Cl)(Cl)Cl)c1ccccc1 (stereo not given) | inactive: 2.71%
31 | COc1ccccc1OP(=O)(Nc1ccc(C)cn1)Oc1ccccc1OC | inactive: -0.76%
32 | Cc1ccc(OP(=O)(Nc2nccs2)Oc2ccc(C)cc2)cc1 | inactive: 2.99%
33 | Clc1ccc(Cl)c(NC2=NCC(CBr)S2)c1 (stereo not given) | inactive: 2.27%
34 | CN1CCCC(OC(=O)C(c2ccccc2)c2ccccc2)C1 (stereo not given) | inactive: 2.36%
35 | NC(=O)c1cc([N+](=O)[O-])cc([N+](=O)[O-])c1N | inactive: -0.04%
36 | Cc1ccc(N/C(=N/P(=O)(N2CCOCC2)N2CCOCC2)N2CCOCC2)cc1 | inactive: 8%
37 | CC(=O)Nc1ccc([As](=O)(O)O)c(O)c1 | inactive: 1.52%
38 | CC(=O)Nc1ccc(Oc2c([N+](=O)[O-])cc([N+](=O)[O-])cc2[N+](=O)[O-])cc1 | inactive: 0.09%
39 | CC(C)(C)C(=O)NC(Sc1ccccc1)C(Cl)(Cl)Cl (stereo not given) | inactive: 3.2%
40 | O=P1(Nc2nc3ccc(Cl)cc3s2)COc2ccccc2O1 (stereo not given) | inactive: -1.32%
41 | CCOc1ccc(C2=NCC(CBr)S2)cc1 (stereo not given) | inactive: 4.98%
42 | Cc1ccccc1OP(=O)(Nc1ccccn1)Oc1ccccc1C | inactive: -1.53%
43 | CN(C)C(=O)Oc1noc2ccccc12 | inactive: 3.17%
44 | O=c1c2cc([N+](=O)[O-])ccc2[nH]c2c([N+](=O)[O-])cc([N+](=O)[O-])cc12 | inactive: 2.98%

Row | Compound | inhibition
45 | COC(=O)c1cc2c(s1)N=C(c1ccccc1)N(C)P2(=O)N1CCOCC1 (stereo not given) | inactive: 5.18%
46 | Cc1ccc(OP(=O)(Nc2ccccn2)Oc2ccc(C)cc2)cc1 | inactive: 1.79%
47 | CC(=O)NC(SC(=S)N(CC(C)C)CC(C)C)C(Cl)(Cl)Cl (stereo not given) | inactive: 11.7%
48 | CCC(=O)N1C2C3N(C(=O)CC)C1C1N(C(=O)CC)C(C(N1C(=O)CC)N3C(=O)CC)N2C(=O)CC | inactive: 0.28%
49 | O=C(NC1CCS(=O)(=O)C1)NP(=S)(Oc1ccccc1)Oc1ccccc1 (stereo not given) | inactive: 4.01%
50 | CCNC(=S)/N=C(\N)N[N+](=O)[O-] | inactive: 7.38%
51 | c1ccc(-c2nn[nH]n2)c(-c2nn[nH]n2)c1 | inactive: 1.29%
52 | CCOC(=O)NC(Sc1ccccc1)C(Cl)(Cl)Cl (stereo not given) | inactive: -0.46%
53 | Cc1ccc(NP(=O)(Oc2cccc(C)c2)Oc2cccc(C)c2)nc1 | inactive: -0.69%
54 | Nc1ccc([As](=O)(O)c2ccc([N+](=O)[O-])cc2)cc1 | inactive: 2.08%
55 | C(Cc1nn[nH]n1)Cc1nn[nH]n1 | inactive: 5.48%
56 | O=C(OC1CN2CCC1CC2)c1cccc(Cl)c1 (stereo not given) | inactive: -0.54%
57 | O=[N+]([O-])c1ncn(CCn2cnc([N+](=O)[O-])n2)n1 | inactive: -0.93%
58 | CC(=O)NC(SC(=S)N(C)C)C(Cl)(Cl)Cl (stereo not given) | inactive: -1%
59 | O=[As](O)(c1ccccc1)c1ccc(O)cc1 | inactive: 2.1%
60 | O=P(Nc1nc2ccccc2s1)(c1ccccc1)c1ccccc1 | inactive: -5.11%
61 | O=P(Nc1ccccn1)(c1ccc(Br)cc1)c1ccc(Br)cc1 | inactive: 3.89%
62 | c1nnnn1CCn1cnnn1 | inactive: 2.58%
63 | O=P(Nc1nccs1)(c1ccccc1)c1ccccc1 | inactive: 5.03%
64 | CC(C)C(=O)NC(Sc1ccccc1)C(Cl)(Cl)Cl (stereo not given) | inactive: 2.72%
65 | O=[As](O)(c1ccccc1Br)c1ccccc1Br | inactive: -0.56%
